Sequences of proteins named here, by UniProt entry; tags and fusion partners are left off.
UniProt P02745, whole entry, looked up: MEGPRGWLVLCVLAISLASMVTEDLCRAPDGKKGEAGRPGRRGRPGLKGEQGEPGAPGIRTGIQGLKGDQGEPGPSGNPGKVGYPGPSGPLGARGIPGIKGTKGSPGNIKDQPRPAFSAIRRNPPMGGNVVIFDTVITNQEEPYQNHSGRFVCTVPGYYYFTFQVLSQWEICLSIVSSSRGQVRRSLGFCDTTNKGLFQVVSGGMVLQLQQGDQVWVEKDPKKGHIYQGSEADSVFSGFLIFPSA
human C1 complex (C1qC1r2C1s2), UniProt P02746, whole entry, looked up: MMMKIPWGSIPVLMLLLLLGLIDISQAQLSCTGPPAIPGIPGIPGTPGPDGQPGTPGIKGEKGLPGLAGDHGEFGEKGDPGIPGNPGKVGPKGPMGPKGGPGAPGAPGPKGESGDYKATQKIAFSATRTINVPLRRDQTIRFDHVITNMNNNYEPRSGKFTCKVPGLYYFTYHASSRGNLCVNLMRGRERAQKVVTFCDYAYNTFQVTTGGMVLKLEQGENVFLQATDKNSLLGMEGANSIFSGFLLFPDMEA
human C1 complex (C1qC1r2C1s2), UniProt P02747, whole entry, looked up: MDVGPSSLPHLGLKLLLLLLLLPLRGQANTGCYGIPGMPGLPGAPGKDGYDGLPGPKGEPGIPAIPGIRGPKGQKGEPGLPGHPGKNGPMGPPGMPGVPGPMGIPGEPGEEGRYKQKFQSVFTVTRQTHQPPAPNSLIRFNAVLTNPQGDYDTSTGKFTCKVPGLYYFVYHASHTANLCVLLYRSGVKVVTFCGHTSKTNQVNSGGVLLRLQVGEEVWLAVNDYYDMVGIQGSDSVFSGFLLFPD

In paper doi:10.1101/2021.09.23.461563:

Target: GST-ErpQ (Borrelia burgdorferi strain B31)
Assay: SPR

**Q.** For “human C1 complex (C1qC1r2C1s2) (from UniProt P02745 23-245; P02746 28-253; P02747 29-245)”, which Kd is on record?
**A.** 11 nM
